Target: Opioid receptors; mu/kappa/delta
Experiment: Inhibitory concentration was determined against Opioid receptors using [3H]- bremazocine radioligand
Format: protein assay, Cavia porcellus
How it was run: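 Guinea pig brain (minus cerebellum) homogenate in 0.05 M Tris pH 7.4, diluted 1:60 (0.8-1.5 mg protein/ml). Ligand tested in duplicate at nine concentrations; 60 min at 25 °C. Nonspecific binding defined with naloxone. Filtration, ice-cold buffer rinse, scintillation counting.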

Oc1ccc2c3c1O[C@H]1[C@@H](O)CC[C@@]4(O)[C@@H](C2)N(CC2CC2)CC[C@]314
IC50: 8.3 nM

— ChEMBL document CHEMBL1128234, “Isothiocyanate-substituted benzyl ether opioid receptor ligands derived from 6 beta-naltrexol” (J Med Chem, 1995)
